Measurements as given in PMC8409973, “Synthesis, antiproliferative and antitrypanosomal activities, and DNA binding of novel 6-amidino-2-arylbenzothiazoles” (Journal of Enzyme Inhibition and Medicinal Chemistry, 2021).

Tested on: L6 cells (a rat myoblast line)
Assay: L6 cell proliferation (cytotoxicity, resazurin)
Format: cell-based

| Compound | SI IC50 (L6/Tb) |
| --- | --- |
| N=C(N)c1ccc2nc(-c3ccc(OCc4cn(-c5ccc(Cl)cc5)nn4)cc3)sc2c1 [10b] | 2.7 |
| CS(=O)(=O)O.Clc1ccc(-n2cc(COc3nc4ccc(C5=NCCCN5)cc4s3)nn2)cc1 [12b, 6-(3,4,5,6-Tetrahydropyrimidin-1-ium-2-yl)-2-[(1-(4-Chlorophenyl)-1H-1,2,3-triazol-4-yl]methoxy)benzothiazole methanesulfonate] | 2.5 |
| CS(=O)(=O)O.Clc1ccc(-n2cc(-c3nc4ccc(C5=NCCCN5)cc4s3)nn2)cc1 [15b, 6-(3,4,5,6-Tetrahydropyrimidin-1-ium-2-yl)-2-[1-(4-chlorophenyl)-1H-1,2,3-triazole-4-yl]benzothiazole methanesulfonate] | 6.9 |
